Source: paper PMC8900464 (Journal of medicinal chemistry, 2022)

Experiments:
[1] = test system: T-AKT; experiment: T-AKT degradation in PC3 cells; assay type: cell-based, human; conditions: 1 μM
[2] = test system: PC-3 xenografts; assay type: in vivo; conditions: PC3 xenograft mice, 75 mg/kg once daily IP, 22 days

Structure (SMILES)	time to substantial/significant AKT degradation [1]	body weight [2]	time to maximum AKT degradation [1]
Cc1ncsc1-c1ccc(CNC(=O)[C@@H]2C[C@@H](O)CN2C(=O)[C@@H](NC(=O)CCCCCCCCCCC(=O)N2CCN(CC[C@H](NC(=O)C3(N)CCN(c4ncnc5[nH]ccc45)CC3)c3ccc(Cl)cc3)CC2)C(C)(C)C)cc1 [Compound 20, 4-Amino-N-((S)-1-(4-chlorophenyl)-3-(4-(12-(((S)-1-((2S,4R)-4-hydroxy-2-((4-(4-methylthiazol-5-yl)benzyl)carbamoyl)pyrrolidin-1-yl)-3,3-dimethyl-1-oxobutan-2-yl)amino)-12-oxododecanoyl)-piperazin-1-yl)propyl)-1-(7H-pyrrolo[2,3-d]pyrimidin-4-yl)-piperidine-4-carboxamide]	≤ 4 h	without significant body weight loss	
NC1(C(=O)N[C@@H](CCN2CCN(C(=O)CCOCCOCCOCCOCCOCCNc3cccc4c3C(=O)N(C3CCC(=O)NC3=O)C4=O)CC2)c2ccc(Cl)cc2)CCN(c2ncnc3[nH]ccc23)CC1 (stereo partly drawn) [Compound 35, 4-Amino-N-((1S)-1-(4-chlorophenyl)-3-(4-(1-((2-(2,6-dioxopiperidin-3-yl)-1,3-dioxoisoindolin-4-yl)amino)-3,6,9,12,15-pentaoxaoctadecan-18-oyl)piperazin-1-yl)propyl)-1-(7H-pyrrolo[2,3-d]-pyrimidin-4-yl)piperidine-4-carboxamide]	8 h		around 24 h
